Literature values in paper PMC10060287 (Pharmacological Reports, 2023).

By UniProt entry, the sequences of proteins in these tests, tags left out.
UniProt P33535, whole entry: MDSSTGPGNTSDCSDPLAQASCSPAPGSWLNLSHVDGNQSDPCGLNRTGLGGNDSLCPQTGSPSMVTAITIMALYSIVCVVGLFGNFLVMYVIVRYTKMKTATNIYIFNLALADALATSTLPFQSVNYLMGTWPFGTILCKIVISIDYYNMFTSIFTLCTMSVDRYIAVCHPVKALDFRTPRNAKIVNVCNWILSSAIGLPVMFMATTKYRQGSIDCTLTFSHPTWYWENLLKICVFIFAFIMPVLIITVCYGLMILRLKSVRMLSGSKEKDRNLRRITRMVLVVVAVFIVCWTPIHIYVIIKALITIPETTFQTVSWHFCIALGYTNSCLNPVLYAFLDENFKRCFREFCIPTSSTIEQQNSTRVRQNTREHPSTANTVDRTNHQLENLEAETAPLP

Molecular target: µ-opioid receptor (µOR) (Rattus norvegicus, UniProt P33535)
Design: method as in Handa 1981
Conditions: comparison with G-peptide IC50; b107 ref Handa 1981; cited from earlier work

DAMGO
activity of the reference ligand DAMGO: subnanomolar activity
